In US20150362491A1, “METHODS AND ASSAYS RELATING TO RNF216” (THE GENERAL HOSPITAL CORPORATION, priority 2013, published 2015):

Tested on: gonadal stimulation
Assay: direct gonadal stimulation with human chorionic gonadotropin
Format: in vivo
Settings: Subject 8; human chorionic gonadotropin treatment

## human chorionic gonadotropin: hormone used for direct gonadal stimulation
  testosterone: 459 ng/dL
